# Apparent affinities of Ab-95 variants for a coronavirus HR2 peptide

Target peptide (SARS-CoV-2 spike, HR2 region): PDVDLGDISGINAS

Ab-95 is the parent antibody, in scFv form: VH, then a 15-residue (Gly4Ser)3 linker, then VL. The heavy chain is unchanged in all variants.
VH: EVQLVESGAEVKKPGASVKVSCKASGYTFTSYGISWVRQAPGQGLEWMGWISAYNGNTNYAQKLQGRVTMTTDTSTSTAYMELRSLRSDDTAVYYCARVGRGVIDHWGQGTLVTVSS
VL: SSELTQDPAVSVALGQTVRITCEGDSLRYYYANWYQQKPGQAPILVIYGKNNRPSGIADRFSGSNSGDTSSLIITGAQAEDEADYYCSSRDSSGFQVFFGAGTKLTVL

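In library AAYL52, one, two or three CDR residues were substituted; doubles and triples were drawn at random. AlphaSeq pools MATa yeast showing the antibodies with MATalpha yeast showing the peptide. After mating in shaken culture at 30 °C for 16 h, diploids were selected and their barcode pairs sequenced. Scores were corrected for input abundance and mapped to Kd with protein pairs of known affinity run in the same pool. Each pool was mated in three replicate cultures.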

Changes read parent residue, position, new residue, counted from the first residue of the VL shown.
Affinities are written as log10 Kd with Kd in nM; a lower number is a better binder.
A mean of the replicates is given; it leaves out those without a signal.
A pair that was not seen in any replicate is written "no signal"; this usually means weak binding, but a binder can also be missed.
Parent in this assay: reference entry 2.31, copy in this library 2.25.
Background: pairings of library AAYL52 with three empty control strains gave a value in 28% of cases (median 3.91, 5th percentile 2.90). Values in that range, when seen in few replicates, are hard to tell from nonspecific mating.

| changes | mean log10 Kd (nM) | detected |
|---|---|---|
| D25E+S26C+P54Q | 3.51 | 1/3 |
| S89Q+D91E+G94K | no signal | 0/3 |
| N51D+S89C+Q96E | 2.60 | 3/3 |
| Y31C+S55Y+S88I | 3.01 | 3/3 |
| N51M+S93E | 3.67 | 2/3 |
| Y31S+N33H+F95Q | 4.59 | 1/3 |
| D25P+N51W+V97N | 4.52 | 3/3 |
| E23F+N33D+N52M | 2.69 | 3/3 |
| L27E+R53E | no signal | 0/3 |
| Y30I+S88K | 3.43 | 3/3 |
| Y29F+A32T | 2.73 | 3/3 |
| S55E+S93G+F95C | 2.59 | 2/3 |
| L27G+R53F+V97E | 3.59 | 3/3 |
| S26W+Y30M+A32L | no signal | 0/3 |
| R28V+S93N+V97W | no signal | 0/3 |
| D91W+S92H+S93C | 3.51 | 2/3 |
| Y29H+S88V+R90E | 2.24 | 3/3 |
| E23M+G24Q+Y30L | 2.83 | 3/3 |
| Y30A+P54S+V97D | 2.60 | 3/3 |
| D25M+K50C+F95P | 2.71 | 1/3 |
| Y30E+N52V+R53Y | 3.63 | 3/3 |
| D25N+Y31P+G94E | no signal | 0/3 |
| N33Y+R90T | 4.26 | 2/3 |
| D25K+Y30G+S55P | 0.89 | 3/3 |
| E23Q+Y31K+S89R | 2.81 | 3/3 |
| L27I+S92R+F98E | 3.09 | 3/3 |
| N51P+S55Q+F98E | 4.33 | 2/3 |
| P54K+S55E+S92C | 2.47 | 3/3 |
| G24K+L27S+Y29E | 2.65 | 3/3 |
| P54M+S55A+S89E | 2.64 | 3/3 |
| L27H+A32T+S55V | 2.20 | 3/3 |
| R28H+N52S+F95G | 2.68 | 3/3 |
| N52A+S89W+F95N | 4.00 | 3/3 |
| Y31N+K50W+R53N | 2.34 | 3/3 |
| S26E+L27P+V97C | no signal | 0/3 |
| N52P+D91C+S93W | 4.12 | 3/3 |
| E23K+D25R+F98S | 2.55 | 3/3 |
| R28Q+K50F+S93R | 3.46 | 2/3 |
| N52D+S88F+Q96S | 4.42 | 3/3 |
| G24K+G49H+N52C | 3.95 | 3/3 |
| R28T+Y31G+S55C | 2.17 | 3/3 |
| D25F+D91S+F98C | 3.27 | 3/3 |
| D25G+G49Y+S93I | 3.34 | 2/3 |
| N33M+K50G+V97T | no signal | 0/3 |
| L27M+Y31M+D91M | 3.78 | 2/3 |
| Y29F+N51F+D91N | 2.90 | 3/3 |
| D25F+P54C+S55C | no signal | 0/3 |
| D25H+Y30A+N33A | 1.86 | 3/3 |
| D91W+S93N+G94Q | 1.45 | 3/3 |
| D25W+N33L+R90M | 4.24 | 1/3 |
| A32T+N52K+D91G | 3.25 | 2/3 |

Top 6 of the variants detected in all replicates, tightest first:

changes	mean log10 Kd (nM)	detected
D25K+Y30G+S55P	0.89	3/3
D91W+S93N+G94Q	1.45	3/3
D25H+Y30A+N33A	1.86	3/3
R28T+Y31G+S55C	2.17	3/3
L27H+A32T+S55V	2.20	3/3
Y29H+S88V+R90E	2.24	3/3

Data: MIT Lincoln Laboratory AlphaSeq set, Engelhart et al. 2022, doi:10.1038/s41597-022-01779-4, as distributed in FLAb.